Values of other authors as cited in patent US20090221581A1, “Methods of treating pain” (priority 2005, published 2009).

Amino acid sequences for entries named in this document (tags omitted).
UniProt P50750, whole entry, species assumed: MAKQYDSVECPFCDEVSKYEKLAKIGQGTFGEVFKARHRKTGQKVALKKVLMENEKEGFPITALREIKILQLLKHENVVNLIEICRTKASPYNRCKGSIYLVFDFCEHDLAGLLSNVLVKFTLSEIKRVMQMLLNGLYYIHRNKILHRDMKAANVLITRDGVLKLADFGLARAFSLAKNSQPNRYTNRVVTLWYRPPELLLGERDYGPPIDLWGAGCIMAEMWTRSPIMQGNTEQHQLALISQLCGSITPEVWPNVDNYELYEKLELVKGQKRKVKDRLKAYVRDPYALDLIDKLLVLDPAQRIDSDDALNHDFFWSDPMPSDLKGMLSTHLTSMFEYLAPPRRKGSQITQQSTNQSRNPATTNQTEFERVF

Biological target: CDK9 (Homo sapiens, UniProt P50750)
Conditions: versus 5,6-dichloro-1-beta-D-ribofuranosylbenzimidazole (DRB); Chao and Price, 2001; cited from earlier work

**Q.** With `CN1CC[C@H](c2c(O)cc(O)c3c(=O)cc(-c4ccccc4Cl)oc23)[C@H](O)C1` [Flavopiridol] as the compound, how does the “affinity for target compared with DRB” value read?
**A.** The value was “higher affinity”.
